Data on two molecules can be found in patent US11352365B2, “Biased potent opioid-like agonists as improved medications to treat chronic and acute pain and methods of using the same” (THE UNITED STATES OF AMERICA, AS REPRESENTED BY THE …, priority 2018, dated 2022).

Chains of the proteins cited; added tags and fusions are not shown. Lines headed by an entry give the natural chain unless they say otherwise; changes in a name come on top.
UniProt P35372, whole entry: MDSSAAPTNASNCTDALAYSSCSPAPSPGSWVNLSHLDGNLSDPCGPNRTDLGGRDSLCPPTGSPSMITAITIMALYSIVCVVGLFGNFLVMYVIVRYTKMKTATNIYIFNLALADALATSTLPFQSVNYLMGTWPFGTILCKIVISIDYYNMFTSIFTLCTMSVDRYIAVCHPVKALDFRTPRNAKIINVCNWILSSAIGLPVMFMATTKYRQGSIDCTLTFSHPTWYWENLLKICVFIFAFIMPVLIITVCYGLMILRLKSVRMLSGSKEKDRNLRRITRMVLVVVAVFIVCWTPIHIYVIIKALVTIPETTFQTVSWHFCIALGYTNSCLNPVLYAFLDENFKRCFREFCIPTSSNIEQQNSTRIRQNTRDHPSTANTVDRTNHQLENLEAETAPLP
UniProt P33533, whole entry: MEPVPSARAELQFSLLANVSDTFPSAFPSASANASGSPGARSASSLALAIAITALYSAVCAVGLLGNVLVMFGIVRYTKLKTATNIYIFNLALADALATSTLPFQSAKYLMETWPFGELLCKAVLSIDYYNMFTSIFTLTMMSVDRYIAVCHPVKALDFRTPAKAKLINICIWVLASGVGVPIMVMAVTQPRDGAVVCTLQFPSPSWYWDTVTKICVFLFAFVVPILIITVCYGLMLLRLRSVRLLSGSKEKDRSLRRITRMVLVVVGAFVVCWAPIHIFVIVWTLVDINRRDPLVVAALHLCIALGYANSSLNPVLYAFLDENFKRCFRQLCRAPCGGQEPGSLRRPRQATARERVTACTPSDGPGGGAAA

Where two headings read alike, the source gives them in different places. Where only a bound is given, the exact number is not on record here.

Experiment [1] addresses T1, MOR (Homo sapiens, UniProt P35372). Put plainly: cell-based. The conditions noted are these: Table 3; read-out: MOR Mediated B-arrestin Recruitment. Further details: host or cells: U2OS-β-arrestin2-EFC-hMOR. In general terms: Arrestin recruitment assays detect the binding of arrestin to an activated receptor.
For experiment [2], the target named is T1, MOR. The experiment is described as follows: cell-based. Further details: expressed in transfected cells; host or cells: CHO-hMOR (membrane variant); SH-SY5Y-hMOR also named. The conditions noted are these: Table 3; inhibition of forskolin-induced cAMP accumulation; read-out: MOR cAMP Agonist Potency ± SEM. (cAMP levels reflect the balance of adenylyl cyclase and phosphodiesterase activity.)

A further experiment concerns the target T2, δ opioid receptor (Rattus norvegicus, UniProt P33533).
T2 construct: from tissue; host or cells: rat tissue (per the earlier reading)
The experiment is described as follows: Binding assay, 3H DADLE, rat tissue. The conditions noted are these: 100 nM concentration.

Turning to `Oc1cccc(C23CCC[C@H]([C@H]2O)N(C/C=C/c2ccccc2)CC3)c1` (stereo in doubt) [Compound 52, (1R,5R,9S)-2-Cinnamyl-5-(3-hydroxyphenyl)-2-azabicyclo[3.3.1]nonan-9-ol], the EC50 on MOR [1] is over 25000 nM; on MOR [2] it was 0.13 ± 0.02 nM.

`CN1CC[C@]23c4c5ccc(O)c4O[C@H]2[C@@H](O)C=C[C@H]3[C@H]1C5` [Morphine, reference compound]: the “3H DADLE δ activity in exploratory assay” value on δ opioid receptor is reported as “I (<50% activity at 100 nM concentration (displaced less than half of radioligand) in exploratory assay)”.
